Literature values, collected in US6596701B1, “S-adenosyl methionine regulation of metabolic pathways and its use in diagnosis and therapy” (MediQuest Therapeutics, Inc., priority 1995, dated 2003).

Tested on: natural killer cell function
Details: Crohn's disease patients; cited from earlier work

SMILES: O=C(O)CCCC[C@@H]1SC[C@@H]2NC(=O)N[C@@H]21 [biotin]
- natural killer cell function: increases their natural killer cell function
